PubChem BioAssay AID624467 (The Scripps Research Institute Molecular Screening Center, 2012)
The list shows a part of the results, in another mix than the full data. Active and inactive are the calls of the source.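 How the source made its calls: active means activation above the mean activation of all test compounds in the run plus 3 SD (cut at about 38% in these data); inactive means the rest.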

The chains behind the UniProt entries cited, without tags or fusion partners. Where a name states a change or a piece, a line headed by the entry shows the natural chain unless it says otherwise.
UniProt Q96RJ0: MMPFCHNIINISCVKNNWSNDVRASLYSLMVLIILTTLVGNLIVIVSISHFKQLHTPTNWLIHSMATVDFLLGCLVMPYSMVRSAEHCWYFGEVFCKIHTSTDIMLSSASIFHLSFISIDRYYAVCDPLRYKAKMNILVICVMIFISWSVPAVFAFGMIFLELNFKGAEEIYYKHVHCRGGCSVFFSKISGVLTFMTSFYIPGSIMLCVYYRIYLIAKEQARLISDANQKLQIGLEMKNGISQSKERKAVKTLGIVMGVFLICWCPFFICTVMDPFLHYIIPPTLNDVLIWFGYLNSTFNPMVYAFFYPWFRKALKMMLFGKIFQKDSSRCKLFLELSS

The compounds below were run against Trace amine-associated receptor 1 (Homo sapiens) (UniProt Q96RJ0) (assay: human TAAR1 agonists, primary screen, Fluo-8 calcium fluorescence, CHO RD-HGA16 cells (AID 624467)). Conditions: CHO RD-HGA16 TAAR1, Fluo-8 calcium fluorescence; at 3 µM; hits give high values; vehicle wells 0%, saturating PEA agonist 100%.

| Structure (SMILES) | activation |
| --- | --- |
| COC(=O)C1(C)COP(=O)(N2CCCC2)OC1 (configuration not stated) | inactive: 1.11% |
| COP1(=S)c2c(C)nn(CCC#N)c2N=C(c2ccc(F)cc2)N1C (configuration not stated) | inactive: 2.86% |
| O=C(O)C(=O)c1ccc(N(CCCl)CCCl)cc1 | inactive: 1.87% |
| O=C(Nc1ccncc1[N+](=O)[O-])c1ccc([N+](=O)[O-])cc1[N+](=O)[O-] | inactive: 1.91% |
| O=C(COc1ccccc1)OC1CN2CCC1CC2 (configuration not stated) | inactive: 8.28% |
| O=C(OC1CN2CCC1CC2)c1cccc([N+](=O)[O-])c1 (configuration not stated) | inactive: 0.96% |
| CCOC(=O)c1ccc(NC(=O)C(C)(CCl)SC)cc1 (configuration not stated) | inactive: 2.83% |
| CCC(C)N(CC(C)C)C(=S)SC(NC(C)=O)C(Cl)(Cl)Cl (configuration not stated) | inactive: -0.56% |
| CCOC(=O)Nc1ccc([As](=O)(O)O)c(O)c1 | inactive: 0.52% |
| O=C(O)C(O)c1ccc(N(CCCl)CCCl)cc1 (configuration not stated) | inactive: 5.63% |
| CC1CCNP(=O)(N(CCCl)CCCl)O1 (configuration not stated) | inactive: 0.38% |
| COP(=O)(OC)N1CC1c1ccccc1 (configuration not stated) | inactive: 16.5% |
| Cc1cc(SC(NC(=O)c2ccccc2)C(Cl)(Cl)Cl)nc(C(C)C)n1 (configuration not stated) | inactive: 1.21% |
| CCCCOc1ccc(C(=O)NCC2(N3CCCCC3)CCCCC2)cc1OC | inactive: 0.83% |
| CCOC(=O)Nc1cccc([As](=O)(O)O)c1 | inactive: -0.37% |
| O=P(Nc1ccccn1)(c1cccc2ccccc12)c1cccc2ccccc12 | inactive: 17.3% |
| Cc1cc(SC(NC=O)C(Cl)(Cl)Cl)ncn1 (configuration not stated) | inactive: 6.94% |
| O=[N+]([O-])c1ccc(Nc2ccc(Oc3ccc([N+](=O)[O-])cc3[N+](=O)[O-])cc2)c([N+](=O)[O-])c1 | inactive: -1% |
| COc1cc(C(=O)NCC2(N3CCOCC3)CCCCC2)ccc1OCC(C)C | inactive: 8.64% |
| O=[N+]([O-])c1ccc(-c2cc([N+](=O)[O-])c(O)c([N+](=O)[O-])c2)cc1 | inactive: -0.52% |
| O=[As](O)(c1ccc(O)cc1)c1ccccc1O | inactive: 5.94% |
| C[As](=O)(O)c1cccc(C(=O)O)c1 | inactive: 2.56% |
| [N-]=[N+]=NC1CCCCC1NC(=O)c1cc([N+](=O)[O-])cc([N+](=O)[O-])c1 (configuration not stated) | inactive: 0.03% |
| Cc1ccc(OP(=O)(Nc2ccc([N+](=O)[O-])cn2)Oc2ccc(C)cc2)cc1 | inactive: -1.02% |
| Cc1ccc2nc3c(c(C)c2c1)CC(C(Cl)Cl)S3 (configuration not stated) | inactive: 1.24% |
| ClCCSc1nnc(-c2cccnc2)o1 | inactive: 11.4% |
| CC(C)c1ccc(OP(=O)(Nc2ccccn2)Oc2ccccc2F)cc1 (configuration not stated) | inactive: 10.1% |
